Here are results for five compounds from patent US10870629B2, “18F-labelled compound for prostate cancer diagnosis, and use thereof” (FUTURECHEM CO., LTD., priority 2017, dated 2020).

Protein sequences, listed by entry. Tags and fused reporters are not part of them.
UniProt Q04609, whole entry: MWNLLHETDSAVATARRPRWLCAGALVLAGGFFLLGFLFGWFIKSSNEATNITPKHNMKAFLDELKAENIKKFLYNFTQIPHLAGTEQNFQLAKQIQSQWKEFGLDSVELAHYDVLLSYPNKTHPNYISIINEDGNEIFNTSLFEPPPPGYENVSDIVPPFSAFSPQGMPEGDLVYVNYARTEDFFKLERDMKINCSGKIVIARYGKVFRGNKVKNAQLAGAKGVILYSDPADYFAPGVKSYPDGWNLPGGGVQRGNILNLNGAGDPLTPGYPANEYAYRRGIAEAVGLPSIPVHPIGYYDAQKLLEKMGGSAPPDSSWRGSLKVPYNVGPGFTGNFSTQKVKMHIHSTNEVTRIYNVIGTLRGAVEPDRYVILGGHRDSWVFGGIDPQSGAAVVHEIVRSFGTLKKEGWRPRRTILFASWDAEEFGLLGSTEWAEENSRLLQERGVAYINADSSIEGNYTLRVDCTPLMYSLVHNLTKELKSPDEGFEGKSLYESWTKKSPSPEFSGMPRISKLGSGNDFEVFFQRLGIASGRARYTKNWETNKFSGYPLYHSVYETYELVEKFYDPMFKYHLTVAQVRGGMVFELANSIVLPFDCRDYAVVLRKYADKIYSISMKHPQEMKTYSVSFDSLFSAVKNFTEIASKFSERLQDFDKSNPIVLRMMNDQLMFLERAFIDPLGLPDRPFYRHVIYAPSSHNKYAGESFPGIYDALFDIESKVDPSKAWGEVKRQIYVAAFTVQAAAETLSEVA

One data set deals with PSMA protein (Homo sapiens, UniProt Q04609). Briefly: Measurement of binding capacity: competition with [125I]15 on 22RV1 cells. Particulars: for IC50: read-out: IC50 (Mean ± SD), [125I]15 0.1 nM, 37° C., 2 hours.
The test system of another data set is PSMA+ PC-3 PIP tumors. Put plainly: MicroPET/CT in mice transplanted with prostate cancer cell lines.
In another data set the test system is PC-3 PIP. Briefly: Measurement of cellular internalization. The data set is classed as cell-based, human. From the text: Then, the membrane protein and the cytoplasmic protein were separated by using Mem-PER Plus Membrane Protein Extraction Kit and NE-PER Nuclear and Cytoplasmic Extraction Kit (ThermoFisher Scientific). The internalization rate (%) was confirmed by obtaining the radioactivity ratio in the cytoplasmic protein to the total radioactivity.

In a further data set the test system is PSMA+ PC-3 PIP tumor. Put plainly: Biodistribution test with prostate cancer model mouse.
Where [1] appears, read: MicroPET/CT, FIGS. 4A to 4C, versus Example 7-6 and Comparative Example 1.
Where [2] appears, read: 0.5 h after tail vein injection.

Regarding `O=C(O)CC[C@H](NC(=O)N[C@@H](CCCCNC(=O)N(Cc1ccncc1)Cc1cn(CCOCCOCC[18F])nn1)C(=O)O)C(=O)O`, the IC50 (as a rule, the midpoint of a concentration-inhibition curve) on PSMA protein stood at 284 nM.

Regarding `O=C(O)CC[C@H](NC(=O)N[C@@H](CCCCNC(=O)N(Cc1cn(CC[18F])nn1)c1ccncc1)C(=O)O)C(=O)O`, the “tumor/liver (tumor to liver ratio) intake ratio” value in the data set on PSMA+ PC-3 PIP tumors (setting [1]) is on record as “relatively higher”. Besides, the “tumor/muscle (tumor to muscle ratio) intake ratio” value in the data set on PSMA+ PC-3 PIP tumors (setting [1]) is reported as “relatively higher”. For the same compound, in the data set on PSMA+ PC-3 PIP tumors (mouse, in vivo), the “tumor binding (MicroPET/CT, FIG. 3)” value is on record as “selectively bound to PSMA+PC-3 PIP tumors”. For the same compound, the “IC50 value worse, times, compared with [18F]1-6” value at PSMA protein is “more than 70 times”. Also, the IC50 at PSMA protein came out at 391 nM. For the same compound, the “% Internalization ratio (Mean ± SD)” value in the data set on PC-3 PIP (30 min) came to 94.24 ± 0.80%; in the data set on PC-3 PIP (60 min) it was 92.33 ± 1.89%; with PC-3 PIP (120 min) it was 85.77 ± 6.12%; in the data set with PC-3 PIP (240 min) it was 95.47 ± 1.52%. The PIP to blood in the data set with PSMA+ PC-3 PIP tumor (setting [2]) was 35.64 ± 25.01; in the data set on PSMA+ PC-3 PIP tumor (1 h after tail vein injection) it was 98.69 ± 30.64; in the data set on PSMA+ PC-3 PIP tumor (2 h after tail vein injection), 487.24 ± 354.87; in the data set with PSMA+ PC-3 PIP tumor (4 h after tail vein injection), 766.82 ± 331.65. Besides, the PIP to liver in the data set with PSMA+ PC-3 PIP tumor (setting [2]) is 17.35 ± 4.34; with PSMA+ PC-3 PIP tumor (1 h after tail vein injection), 15.92 ± 1.95; in the data set with PSMA+ PC-3 PIP tumor (2 h after tail vein injection) it was 18.47 ± 7.63; in the data set on PSMA+ PC-3 PIP tumor (4 h after tail vein injection), 20.93 ± 7.40. Besides, the PIP to muscle in the data set on PSMA+ PC-3 PIP tumor (setting [2]) is on record as 47.39 ± 38.05; in the data set on PSMA+ PC-3 PIP tumor (1 h after tail vein injection) it was 86.15 ± 29.07; in the data set on PSMA+ PC-3 PIP tumor (2 h after tail vein injection), 334.14 ± 260.49; in the data set on PSMA+ PC-3 PIP tumor (4 h after tail vein injection), 533.90 ± 188.93. Moreover, the PIP to spleen in the data set on PSMA+ PC-3 PIP tumor (setting [2]) is given as 7.74 ± 6.03; in the data set with PSMA+ PC-3 PIP tumor (1 h after tail vein injection), 13.77 ± 5.53; in the data set with PSMA+ PC-3 PIP tumor (2 h after tail vein injection) it was 58.80 ± 53.63; in the data set with PSMA+ PC-3 PIP tumor (4 h after tail vein injection), 128.24 ± 95.38. Further, the “normal tissue intake rate compared to tumor” value in the data set on PSMA+ PC-3 PIP tumor (in words) was “superior”.

`O=C(O)CC[C@H](NC(=O)N[C@@H](CCCCNC(=O)N(Cc1cn(CCOCCOCC[18F])nn1)c1ccncc1)C(=O)O)C(=O)O`: at PSMA protein, the “IC50 value worse, times, compared with [18F]1-6” value was “more than 40 times” and the IC50 was 236 nM.

With `O=C(O)CC[C@H](NC(=O)N[C@@H](CCCCNC(=O)N(Cc1ccncc1)Cc1cn(CC[18F])nn1)C(=O)O)C(=O)O`, at PSMA protein, the IC50 came to 65.3 nM.

Take `O=C(O)CC[C@H](NC(=O)N[C@@H](CCCCNC(=O)NCc1cn(CCOCCOCC[18F])nn1)C(=O)O)C(=O)O`: at PSMA protein, the IC50 stood at 64.6 nM.
